## Yeast mating assay 2: variants of the scFv Ab-91

Target: peptide PDVDLGDISGINAS, taken from heptad repeat 2 (HR2) of SARS-CoV-2 spike.

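Phage display of a naive human antibody library on the peptide gave the parent. In library AAYL51, one, two or three CDR residues were substituted; doubles and triples were drawn at random. The scFvs were displayed on barcoded MATa yeast, the peptide on MATalpha yeast. Pairs that bind mate more often; barcode pairs of the diploids are counted by sequencing. The ratio of observed to expected reads was calibrated, replicate by replicate, on BCL2-family standards whose Kd was known from biolayer interferometry. Mating was done three times.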

The variants keep the light chain, the linker and the frameworks of Ab-91 (scFv order VL, three GGGGS repeats, VH).
VL: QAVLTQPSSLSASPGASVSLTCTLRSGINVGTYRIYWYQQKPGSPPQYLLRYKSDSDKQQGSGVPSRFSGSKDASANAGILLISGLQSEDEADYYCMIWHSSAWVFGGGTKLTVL
VH: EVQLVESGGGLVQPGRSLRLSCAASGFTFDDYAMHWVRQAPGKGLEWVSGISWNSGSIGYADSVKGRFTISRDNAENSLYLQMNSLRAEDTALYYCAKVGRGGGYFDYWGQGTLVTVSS

Each variant's VH is given in full.
All variants listed here change K65 of the VH, counted from its first residue.
Scale: log10 of Kd in nM, estimated from mating counts; low values are strong binders.
An entry "nd" has no value in the source: the pair was not observed among the diploids in that replicate. This suggests poor binding but is not conclusive.
Three control strains display no target. For library AAYL51, 21% of the pairings with them gave a signal, with a median of 4.54 and one signal in twenty below 3.26, so weak values seen in few replicates may be background.

* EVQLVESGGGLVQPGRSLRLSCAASGFTFDDYAMHWVRQAPGKGLEWVSGISWNSGSIGYADCVCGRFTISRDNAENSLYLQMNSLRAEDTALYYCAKVGRGGGYFKYWGQGTLVTVSS: nd, nd, nd
* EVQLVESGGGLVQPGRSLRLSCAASGFTFDDYAMHWVRQAPGKGLEWVSGISWNSGSIGYADSCAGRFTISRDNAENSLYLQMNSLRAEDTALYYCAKVGRGGGYMDYWGQGTLVTVSS: nd, nd, nd
* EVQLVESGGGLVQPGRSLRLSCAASGFTFDDNAMHWVRQAPGKGLEWVSGISWFSGSIGYADSVVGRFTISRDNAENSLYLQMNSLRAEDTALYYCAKVGRGGGYFDYWGQGTLVTVSS: nd, nd, nd
* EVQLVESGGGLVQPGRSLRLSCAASGFTFDDYAMHWVRQAPGKGLEWVSGISWNSGSIGYADSVFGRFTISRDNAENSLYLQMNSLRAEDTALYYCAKVGRFGGYFDYWGQGTLVTVSS: 1.00, 0.94, 0.20
* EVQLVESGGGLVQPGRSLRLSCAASGFTFDDYLMHWVRQAPGKGLEWVSGISWNSGSIGYADSVSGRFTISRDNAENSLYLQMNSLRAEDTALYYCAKVGRGGGYFDYWGQGTLVTVSS: 4.12, 5.24, 4.88
* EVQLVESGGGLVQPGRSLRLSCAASGFTFDDYELHWVRQAPGKGLEWVSGISWNSGSIGYADSVCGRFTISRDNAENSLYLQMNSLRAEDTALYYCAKVGRGGGYFDYWGQGTLVTVSS: 3.22, nd, 3.19
* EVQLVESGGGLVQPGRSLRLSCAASGMTFDDYAMHWVRQAPGKGLEWVSGISWNSGSIGMADSVEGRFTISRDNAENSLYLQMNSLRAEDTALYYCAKVGRGGGYFDYWGQGTLVTVSS: nd, nd, nd
* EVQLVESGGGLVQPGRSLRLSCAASGFTFDDYAMHWVRQAPGKGLEWVSGISWNSGSYGYADSVEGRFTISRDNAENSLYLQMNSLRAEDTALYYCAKVGRGGAYFDYWGQGTLVTVSS: nd, nd, nd
* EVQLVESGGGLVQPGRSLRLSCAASGFTFDDYRMHWVRQAPGKGLEWVSGISWNSGSIGYADSVLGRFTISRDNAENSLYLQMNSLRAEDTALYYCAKFGRGGGYFDYWGQGTLVTVSS: 3.79, 4.98, nd
* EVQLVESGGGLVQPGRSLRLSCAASGFTFDDYAMHWVRQAPGKGLEWVSGISWNSGSIGYADSVIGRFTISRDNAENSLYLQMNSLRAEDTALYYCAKVWGGGGYFDYWGQGTLVTVSS: nd, nd, nd
* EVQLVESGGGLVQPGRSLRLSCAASGETFDDYAMHWVRQAPGKGLEWVSGISWFSGSIGYADSVDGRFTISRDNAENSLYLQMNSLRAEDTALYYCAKVGRGGGYFDYWGQGTLVTVSS: 5.57, nd, nd
* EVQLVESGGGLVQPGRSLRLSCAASGFQFDDYAMHWVRQAPGKGLEWVSGISWNSGSAGYADSVEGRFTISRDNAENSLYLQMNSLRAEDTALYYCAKVGRGGGYFDYWGQGTLVTVSS: 1.12, 1.08, 0.29
* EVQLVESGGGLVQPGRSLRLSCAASGFTFDDYAMHWVRQAPGKGLEWVSGISWNSSSIGYADSVEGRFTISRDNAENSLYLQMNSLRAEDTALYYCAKVHRGGGYFDYWGQGTLVTVSS: 3.31, 3.14, 3.03
* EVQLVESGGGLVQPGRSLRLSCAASGFTHDDYAQHWVRQAPGKGLEWVSGISWNSGSIGYADSVWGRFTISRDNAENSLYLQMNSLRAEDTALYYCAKVGRGGGYFDYWGQGTLVTVSS: nd, nd, nd
* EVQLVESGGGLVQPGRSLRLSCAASGFTFDDYAMHWVRQAPGKGLEWVSGISWNSGSIGYADSVYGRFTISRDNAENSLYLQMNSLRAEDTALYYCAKVMRGGGYFYYWGQGTLVTVSS: 4.37, 4.43, nd
* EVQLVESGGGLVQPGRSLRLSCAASKFTFDDYAMHWVRQAPGKGLEWVSGISWNSGSIGYADSVHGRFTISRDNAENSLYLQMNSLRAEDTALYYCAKSGRGGGYFDYWGQGTLVTVSS: 4.73, 4.95, nd

Extract of 2 entries:

| VH | log10 Kd, replicates |
|---|---|
| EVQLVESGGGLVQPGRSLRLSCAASGMTFDDYAMHWVRQAPGKGLEWVSGISWNSGSIGMADSVEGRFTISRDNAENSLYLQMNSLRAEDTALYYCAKVGRGGGYFDYWGQGTLVTVSS | nd, nd, nd |
| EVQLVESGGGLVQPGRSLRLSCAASKFTFDDYAMHWVRQAPGKGLEWVSGISWNSGSIGYADSVHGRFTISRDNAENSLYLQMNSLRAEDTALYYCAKSGRGGGYFDYWGQGTLVTVSS | 4.73, 4.95, nd |

Reference: Engelhart et al. 2022, doi:10.1038/s41597-022-01779-4. File: FLAb, binding data.